The experiment has as its system high-grade serous carcinoma (HGSC) 3D cultures. Nature of the experiment: Organoid formation in HGSC 3D cultures in medium -/+ BMP2. It is filed as cell-based, human. The conditions noted are these: soluble BMP2 final concentration 10 ng/ml in growth medium; organoid counts per field view, 3 patient isolates. The protocol:
The plot is representative of formed organoid counts per field view from 3 different patient isolates which were cultivated in parallel in medium−/+BMP2.
• Adv. +++: Advanced F12 Medium+HEPES (6 ml)+Glutamax (5 ml)+5% fetal calf serum (FCS) • Adv. ++: Advanced F12 Medium+HEPES (6 ml)+Glutamax (5 ml) • Cut tissue with a scissor in small pieces and then mince further with scalpel for 3-5 minutes • Collect all fragments, incubate with 2 ml Collagenase Type 1+2 ml Collagenase type II and transfer to a 6 well plate, • Incubate fragments for 45 min at 37° C. 5% CO2, • Add 5 ml Adv +++ and transfer in to a 50 ml Falcon tube, • Vortex vigorously for 30 seconds, • Let pieces settle down, take supernatant and transfer in to a fresh tube, • Add again 5 ml Adv +++, mix with a pipette, • Let pieces settle down, take supernatant and transfer in to a fresh tube, • Centrifuge for 5 min at 400 rpm, • Discard supernatant, • Prepare 10 ml Adv +++, add 30 μl Y-27632 and 10 μl hEGF (final conc. 10 ng/ml), • Resuspend cell pellet in medium, • Seed cell in a flask, • Incubate at 5% CO2 at 37° C. and grow cells 3-5 days prior to transfer to 3D culture. […]

Entries after “also recorded” stand apart in the source; their conditions may differ.

B1: BMP2: bone morphogenetic protein, e.g. human BMP2 (RefSeq NP_001191), added exogenously to the medium (protein, UniProt P12643 283-396, looked up)
Bone morphogenetic protein 2: QAKHKQRKRLKSSCKRHPLYVDFSDVGWNDWIVAPPGYHAFYCHGECPFPLADHLNSTNHAIVQTLVNSVNSKIPKACCVPTELSAISMLYLDENEKVVLKNYQDMVVEGCGCR
As for B1, the “organoid formation efficiency / organoid growth” value was “improves organoid growth; also recorded: clearly improved”.
